The test has as its target Dual specificity protein phosphatase 3 (Homo sapiens) (UniProt P51452). Kind of test: Biochemical DiFMUP fluorescent assay for VHR phosphatase inhibition, SAR follow up (AID 2074). As to conditions: recombinant VHR phosphatase, DiFMUP fluorescence.

Chains of the proteins cited; added tags and fusions are not shown. Lines headed by an entry give the natural chain unless they say otherwise; changes in a name come on top.
UniProt P51452: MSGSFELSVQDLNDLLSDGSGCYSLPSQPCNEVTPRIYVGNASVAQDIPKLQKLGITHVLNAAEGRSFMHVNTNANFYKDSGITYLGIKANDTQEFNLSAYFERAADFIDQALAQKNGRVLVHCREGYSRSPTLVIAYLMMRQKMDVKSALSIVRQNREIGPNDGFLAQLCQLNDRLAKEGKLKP

The term IC50 denotes the midpoint of a concentration-inhibition curve.

Consider `O=C1/C(=C/c2cn(-c3ccccc3)nc2-c2ccc(S(=O)(=O)N3CCCCC3)cc2)SC(=S)N1CCS(=O)(=O)O`, for which the IC50 is 270 nM.

Source of the values: PubChem BioAssay AID2074 (Sanford-Burnham Center for Chemical Genomics, 2009).
